Drawing on PubChem BioAssay AID1325 (NMMLSC, 2008), this text covers inhibition for 25 compounds.

Amino acid sequences for entries named in this document (tags omitted).
UniProt Q9UNQ0, whole entry: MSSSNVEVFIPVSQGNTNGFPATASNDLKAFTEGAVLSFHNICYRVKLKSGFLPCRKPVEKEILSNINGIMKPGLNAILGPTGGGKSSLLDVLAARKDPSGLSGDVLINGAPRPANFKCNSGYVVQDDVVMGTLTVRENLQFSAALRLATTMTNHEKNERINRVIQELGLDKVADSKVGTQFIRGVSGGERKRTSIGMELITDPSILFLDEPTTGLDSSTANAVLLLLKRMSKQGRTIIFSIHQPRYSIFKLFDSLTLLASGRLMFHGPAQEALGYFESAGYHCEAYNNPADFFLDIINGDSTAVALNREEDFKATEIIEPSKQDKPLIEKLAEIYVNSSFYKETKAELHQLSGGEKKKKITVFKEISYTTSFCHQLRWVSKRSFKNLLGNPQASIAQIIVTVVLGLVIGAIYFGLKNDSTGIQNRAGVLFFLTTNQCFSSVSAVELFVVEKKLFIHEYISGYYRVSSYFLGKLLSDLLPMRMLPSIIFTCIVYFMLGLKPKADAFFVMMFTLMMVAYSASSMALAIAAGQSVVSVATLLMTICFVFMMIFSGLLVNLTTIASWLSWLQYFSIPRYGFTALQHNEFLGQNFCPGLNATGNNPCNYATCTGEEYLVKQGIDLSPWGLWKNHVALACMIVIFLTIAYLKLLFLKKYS

A word on the inhibition: it is the drop in the measured response relative to a control, in per cent.

SMILES strings stand for the structures. Only a part is listed here, and it is no random draw. The source made the active and inactive calls.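 Rule for the calls: active = inhibition above 80%; inactive = the rest.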

The assay has as its target Broad substrate specificity ATP-binding cassette transporter ABCG2 (Homo sapiens) (UniProt Q9UNQ0). Kind of assay: blockers of JC-1 export by ABCG2 – multiplex with ABCB1, IgMXP3 cells, flow cytometry, primary screen (AID 1325).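 Note: 0% = DMSO and 100% = nicardipine control wells.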 To be noted: JC-1 efflux, at 6.6 µM, hits give high values. For orientation: Flow cytometry measures light scatter and fluorescence of single cells or particles in a stream.
In the case of `COc1ccc(NC2CCN(CCc3ccccc3)CC2)c(OC)c1`, the inhibition was inactive: 0.63%.

For the compound `COc1ccc(C(=O)NCC2(N3CCCCC3)CCCCC2)c(OC)c1OC`, the inhibition was inactive: 3.67%.

Take `O=C(NCC1(N2CCOCC2)CCCCC1)c1cc2ccccc2o1`: the inhibition is inactive: 2.92%.

For the compound `CCOC(=O)N1CCC(Nc2ccc(OC)cc2)CC1`, the inhibition was inactive: 1.52%.

On to `O=C(OC1CN2CCC1CC2)C1c2ccccc2Oc2ccccc21` (stereo not given), for which the inhibition is inactive: 1.25%.

Consider `COc1ccc(CN(CCCl)CCCl)cc1Cl`, for which the inhibition was inactive: 7.54%.

Consider `CN(C)c1cccc(C(=O)NCC2(N3CCCCC3)CCCCC2)c1`, for which the inhibition is inactive: -1.12%.

As for `CC(C)c1ccc(NC2CCN(C(=O)OC(C)(C)C)CC2)cc1`, the inhibition was inactive: 0.46%.

For `O=C(NCC1(N2CCCCC2)CCCCC1)c1cccc([N+](=O)[O-])c1`, the inhibition is inactive: 10.9%.

As to `N#CC1(Nc2ccccc2)CCN(CCc2ccccc2)CC1`, the inhibition was inactive: 1.32%.

For the compound `COc1ccc(NC2CCN(C(=O)OC(C)(C)C)CC2)cc1`, the inhibition was inactive: 5.32%.

As for `CN1CCN(CCOC(=O)C(O)(c2ccccc2)c2ccccc2)CC1`, the inhibition was inactive: 1.86%.

Take `O=C(NCC1(N2CCOCC2)CCCCC1)c1cc(=O)[nH]c2ccccc12`: the inhibition was inactive: 2%.

In the case of `N#Cc1ccc(C(=O)NCC2(N3CCCCC3)CCCCC2)cc1`, the inhibition was inactive: -0.63%.

For the compound `c1ccc(CN2CCC(Nc3ccccc3)CC2)cc1`, the inhibition was inactive: 0.29%.

As to `COc1ccc(C(=O)NCC2(N3CCOCC3)CCCCC2)cc1OC`, the inhibition is inactive: 5.3%.

With `N/C(=N\O)c1c(N)no[n+]1[O-]`, the inhibition was inactive: 0.98%.

For `O=C(OC1CN2CCC1CC2)C1c2ccccc2C=Cc2ccccc21` (stereo not given), the inhibition was inactive: -1.41%.

For `CCOc1ncccc1C(=O)NCC1(N2CCOCC2)CCCCC1`, the inhibition was inactive: -0.01%.

For the compound `CC(C)(C)OC(=O)N1CCC(Nc2ccccc2)CC1`, the inhibition is inactive: 1.68%.

With `CCC(CO)(C(=O)OC1CN2CCC1CC2)c1ccccc1` (stereo not given), the inhibition was inactive: 1.39%.

Regarding `COc1cc(OC)cc(C(=O)NCC2(N3CCOCC3)CCCCC2)c1`, the inhibition is inactive: 4.03%.

For `Fc1ccccc1NC1CCN(Cc2ccccc2)CC1`, the inhibition is inactive: 1.49%.

`CCN1CCC(Nc2cccc(F)c2)CC1`: the inhibition is inactive: 1.84%.

Consider `CN(C)c1ccc(C(=O)NCC2(N3CCCCC3)CCCCC2)cc1`, for which the inhibition is inactive: 1.6%.
